Data reported in ChEMBL document CHEMBL5154787 (J Med Chem, 2022).

The chains behind the UniProt entries cited, without tags or fusion partners. Where a name states a change or a piece, a line headed by the entry shows the natural chain unless it says otherwise.
UniProt Q2M2I8: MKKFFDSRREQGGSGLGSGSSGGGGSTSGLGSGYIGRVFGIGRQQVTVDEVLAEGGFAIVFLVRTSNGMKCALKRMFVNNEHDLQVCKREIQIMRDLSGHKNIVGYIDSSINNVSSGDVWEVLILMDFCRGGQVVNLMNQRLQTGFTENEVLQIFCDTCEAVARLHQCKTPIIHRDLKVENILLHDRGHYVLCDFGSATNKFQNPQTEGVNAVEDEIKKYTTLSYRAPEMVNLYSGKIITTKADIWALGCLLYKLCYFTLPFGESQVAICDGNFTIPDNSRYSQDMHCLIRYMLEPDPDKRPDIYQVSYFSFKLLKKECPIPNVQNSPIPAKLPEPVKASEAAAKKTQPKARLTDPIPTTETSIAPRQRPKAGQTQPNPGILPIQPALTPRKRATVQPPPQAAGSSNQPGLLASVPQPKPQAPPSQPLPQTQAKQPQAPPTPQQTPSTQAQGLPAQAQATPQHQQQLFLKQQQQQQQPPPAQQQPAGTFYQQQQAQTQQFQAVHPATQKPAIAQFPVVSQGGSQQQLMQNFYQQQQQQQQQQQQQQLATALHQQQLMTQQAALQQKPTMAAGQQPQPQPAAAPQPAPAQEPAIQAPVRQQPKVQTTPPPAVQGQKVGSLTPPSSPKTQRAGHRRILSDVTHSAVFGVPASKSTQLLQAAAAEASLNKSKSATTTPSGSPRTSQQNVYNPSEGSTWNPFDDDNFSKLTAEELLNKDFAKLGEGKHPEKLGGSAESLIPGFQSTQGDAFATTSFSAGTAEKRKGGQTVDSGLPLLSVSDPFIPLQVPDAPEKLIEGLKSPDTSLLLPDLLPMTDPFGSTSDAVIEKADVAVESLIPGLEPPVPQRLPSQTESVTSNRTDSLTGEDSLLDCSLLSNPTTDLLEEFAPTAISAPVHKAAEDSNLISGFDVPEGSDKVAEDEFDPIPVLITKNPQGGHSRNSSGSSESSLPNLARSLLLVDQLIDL

Biological target: AP2-associated protein kinase 1 (Homo sapiens, UniProt Q2M2I8)
Experiment: Inhibition of bacterially expressed GST-Xa-tagged human AAK1 using 5-FAM-labelled Aha-KEEQSQITSQVTGQIGWR-NH2 peptide as substrate incubated for 3 hrs in presence of ATP by electrophoretic analysis

An IC50 of 2.3 nM was found for `CC(C)C[C@](C)(N)COc1cnc(-c2ccnc(Cl)c2)cc1Cl` in this work.
